Assay results published in patent US10689415B2, “Conjugates of RGD peptides and (bacterio)chlorophyll photosensitizers” (YEDA RESEARCH AND DEVELOPMENT COMPANY LTD., priority 2006, dated 2020).

The chains behind the UniProt entries cited, without tags or fusion partners. Residues count along the entry.
UniProt P02768, 25-609: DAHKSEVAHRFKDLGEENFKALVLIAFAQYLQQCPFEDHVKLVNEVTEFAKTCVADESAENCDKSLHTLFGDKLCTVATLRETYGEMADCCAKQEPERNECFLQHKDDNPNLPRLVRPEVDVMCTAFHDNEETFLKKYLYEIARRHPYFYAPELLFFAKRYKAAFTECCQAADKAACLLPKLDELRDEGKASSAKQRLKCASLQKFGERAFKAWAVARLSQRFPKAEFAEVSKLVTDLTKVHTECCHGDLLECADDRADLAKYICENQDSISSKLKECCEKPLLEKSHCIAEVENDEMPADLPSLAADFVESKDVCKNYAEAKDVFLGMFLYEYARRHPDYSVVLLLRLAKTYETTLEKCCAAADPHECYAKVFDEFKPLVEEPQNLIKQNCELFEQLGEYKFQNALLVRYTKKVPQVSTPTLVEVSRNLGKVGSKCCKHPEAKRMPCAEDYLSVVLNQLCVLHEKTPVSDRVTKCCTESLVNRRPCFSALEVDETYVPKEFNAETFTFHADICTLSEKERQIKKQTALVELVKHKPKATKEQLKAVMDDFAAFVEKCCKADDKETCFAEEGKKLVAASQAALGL

Molecular target: HSA (Homo sapiens, UniProt P02768)
Test: Association constants of photosensitizers to HSA (spectroscopic titration)
Type: binding
Excerpt: Association constants of photosensitizers, conjugated or non-conjugated to an RGD-containing peptide, were deduced from spectroscopic measurements of the ratio between the photosensitizer and HSA for different concentrations of HSA using both factor analysis, as previously described (Brandis et al., 2005) and by monitoring changes in the near infrared (NIR) absorption of the photosensitizers during titration with HSA. Briefly, all photosensitizers (PhSs) present broad NIR absorption with reduced intensity in SA-free aqueous solutions. Upon addition of SA, they form 1:1 complexes with the added protein (PhS/SA) with strong and narrow NIR absorption bands. The narrow-band absorption is proportional to the (PhS/SA) concentration enabling calculation of the association constant Ka through the following equation:
[formula] where [SA]0 is the analytical concentration of the added SA and [PhS/SA] is the concentration of the photosensitizer complexed with SA calculated from the spectral changes. In Vitro Studies
Therefore, the association constants of compounds 8 and 25 and conjugates 13 and 24 were determined. […] In fact, those for the RGDconjugates were four to six fold lower than the association constants of their RGD-free analogues, ruling out stronger SA association as the sole basis for RGD-conjugates retention in the tumor.

Substance: 3^1-oxo-15-methoxycarbonylmethyl-Rhodobacteriochlorin 13^1-(2-sulfoethyl)amide potassium salt [Compound 25, reference compound]
- association constants Ka(HSA): 0.44±0.09

Substance: Palladium 3^1-oxo-15-methoxycarbonylmethyl-Rhodobacteriochlorin 13^1-(2-sulfoethyl)amide potassium salt [Compound 8]
- association constants Ka(HSA): 0.54±0.07
